Laboratory results published in US20140127158A1, “COMBINATION THERAPY FOR HEPATITIS C VIRUS INFECTION” (National Health Research Institute, priority 2012, published 2014).

System: HCV genotype 1b replicon
Experiment: Inhibitor combination study (combination index, CalcuSyn)
Details: at the concentrations used in the combination experiments

SMILES: NC(=O)c1ncn([C@@H]2O[C@H](CO)[C@@H](O)[C@H]2O)n1 [Ribavirin, ribavirin, reference compound]
- cytotoxicity: No cytotoxicity was observed
